{"sequences": {"note": "Sequences of proteins named here, by UniProt entry; tags and fusion partners are left off.", "UniProt Q9HD36, whole entry": "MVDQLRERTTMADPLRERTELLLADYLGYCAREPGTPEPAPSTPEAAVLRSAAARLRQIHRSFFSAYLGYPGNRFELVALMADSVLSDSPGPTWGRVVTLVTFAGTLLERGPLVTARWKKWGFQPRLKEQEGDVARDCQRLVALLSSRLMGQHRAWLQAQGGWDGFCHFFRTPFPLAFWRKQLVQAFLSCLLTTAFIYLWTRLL", "UniProt P22736, whole entry partner": "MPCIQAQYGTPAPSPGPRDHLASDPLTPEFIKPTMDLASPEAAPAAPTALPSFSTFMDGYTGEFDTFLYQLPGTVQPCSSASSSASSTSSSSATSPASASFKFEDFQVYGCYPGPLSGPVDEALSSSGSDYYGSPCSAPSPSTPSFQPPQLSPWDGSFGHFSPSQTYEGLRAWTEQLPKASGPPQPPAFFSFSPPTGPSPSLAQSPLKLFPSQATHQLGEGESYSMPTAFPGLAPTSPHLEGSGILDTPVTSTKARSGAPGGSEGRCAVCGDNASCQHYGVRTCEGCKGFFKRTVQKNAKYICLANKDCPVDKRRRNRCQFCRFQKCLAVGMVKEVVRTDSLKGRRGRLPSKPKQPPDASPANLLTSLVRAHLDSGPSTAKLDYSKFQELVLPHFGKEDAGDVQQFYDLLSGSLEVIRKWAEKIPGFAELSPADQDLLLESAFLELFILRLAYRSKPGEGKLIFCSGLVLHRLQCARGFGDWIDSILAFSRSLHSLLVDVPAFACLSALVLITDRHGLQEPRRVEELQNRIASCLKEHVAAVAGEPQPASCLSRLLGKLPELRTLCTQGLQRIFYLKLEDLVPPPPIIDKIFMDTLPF"}, "source": "PubChem BioAssay AID1240", "about": "(Sanford-Burnham Center for Chemical Genomics, 2008)", "note": "The entries are a selection whose mix differs from that of the whole data set."}
{"molecular_target": "Bcl-2-like protein 10 (Homo sapiens) (UniProt Q9HD36)", "assay": "TR3 peptide-Bcl-B binding displacers, biochemical primary FP assay, phenotype converters (AID 1240);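 note: 0% = Bcl-B with tracer peptide and DMSO and 100% = tracer peptide lacking Bcl-B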", "conditions": "GST-Bcl-B / FITC-TR3 peptide fluorescence polarization; stronger effect = higher value; compound at 3.75 mg/L", "units": {"displacement": "%"}}
{"smiles": "CP(=O)(Oc1ccc(F)cc1)Oc1ccc(F)cc1", "displacement": 19}
{"smiles": "CCc1ccc(OP(C)(=O)O)cc1", "displacement": -0.5}
{"smiles": "CN(C)CCOC(=O)C(O)(c1ccccc1)c1ccccc1", "displacement": -1.5}
{"smiles": "CCOP(C)(=S)SCC(=O)NC(C)C(=O)O", "note": "(configuration not stated)", "displacement": 1}
{"smiles": "CP(=O)(Oc1ccccc1F)Oc1ccccc1F", "displacement": 15.7}
{"smiles": "CP(=O)(Oc1ccccc1)Oc1ccccc1", "displacement": 11.5}
{"smiles": "CP(=O)(Oc1ccc(Cl)cc1)Oc1ccc(Cl)cc1", "displacement": 14.9}
